Tested on: hippocampal slices
Assay: Hippocampal slice cultures and induction of LTP (immunohistochemistry of LTP markers)
Assay type: cell-based, Wistar rats
Conditions: compared to vehicle treated sections set as 100%; 15 min treatment
Protocol: Seven-day-old Wistar rats were decapitated using a guillotine. In less than 1 minute the skull was opened, the cerebral hemispheres were separated and transferred and both hippocampi were dissected and transferred into ice cold buffer containing 137 mM NaCl, 5 mM KCl, 0.85 mM Na2HPO4, 1.5 mM CaCl2, 0.66 mM KH2PO4, 0.28 mM MgSO4, 1 mM MgCl2, 2.7 mM NaHCO3, 1 mM Kynurenic acid and 0.6% D-glucose. Transversal hippocampal slices (typically 400 μm) were prepared using a vibrating blade microtome (VT1200S; Leica Microsystems (Schweiz) AG, Heerbrugg, Switzerland) in the same buffer. Hippocampal slices were individually placed on a membrane insert (Millicell Culture Plate Inserts, 0.4 μm) and cultivated at 35° C., 5% CO2, 95% humidity in a medium containing a 1:1 mixture of BME and MEM (both from Invitrogen) containing 25% heat-inactivated horse serum, 1× GlutaMAX, 1× Penicillin/Streptomycin, 0.6% glucose and 1 mM Kynurenic acid (Stoppini et al. 1991 J Neurosci Methods 37(2):173-82). […] Sarcosine (100 μM) and ALX5407 (20 nM) were used routinely as positive controls. An additional positive control comprised the addition of 200 μM glycine to sister cultures. […] Markers of enhanced synaptic activity, normally associated with LTP, representing an in vitro (or ex vivo) model of learning and memory, were quantified (see Table 1, below). […]

With `NCC(=O)O` [Glycine] the “AMPA rec. (AMPA receptors on the cell surface)” value was 123-298%.

From US20110104716A1, “NOVEL METHOD FOR SCREENING BRAIN-ACTIVE COMPOUNDS” (priority 2007, published 2011)
